# The entries are a selection whose mix differs from that of the whole data set. Active and inactive are the calls of the source.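 Rule for the calls: active = inhibition past about -25% in most replicates, and total fluorescence under double the plate's negative control median (limit read from the data); inconclusive = replicates evenly split on the limit, or fluorescence at least double controls; inactive = too little inhibition in most replicates.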
# Amino acid sequences for entries named in this document (tags omitted).
# UniProt Q9XUB2, whole entry: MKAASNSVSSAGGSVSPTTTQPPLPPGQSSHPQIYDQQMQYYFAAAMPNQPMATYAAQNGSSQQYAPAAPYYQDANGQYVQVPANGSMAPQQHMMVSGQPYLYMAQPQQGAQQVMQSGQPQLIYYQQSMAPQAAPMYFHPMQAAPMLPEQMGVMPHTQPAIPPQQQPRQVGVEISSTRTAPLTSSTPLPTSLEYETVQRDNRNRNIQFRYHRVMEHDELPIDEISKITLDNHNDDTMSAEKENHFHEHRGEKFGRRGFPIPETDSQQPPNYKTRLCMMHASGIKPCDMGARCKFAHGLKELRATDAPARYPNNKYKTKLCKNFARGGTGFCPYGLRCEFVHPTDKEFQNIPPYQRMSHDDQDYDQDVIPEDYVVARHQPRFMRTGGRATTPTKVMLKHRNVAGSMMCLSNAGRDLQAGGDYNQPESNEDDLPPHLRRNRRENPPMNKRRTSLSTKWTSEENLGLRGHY
# Target: Zinc finger protein mex-5 (Caenorhabditis elegans) (UniProt Q9XUB2)
# Assay: MEX-5 zinc finger RNA-binding disruptors – biochemical, C. elegans, fluorescence polarization, MLPCN library, primary screen (AID 1832);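 note: 0% = DMSO and -100% = 5 µM competing unlabeled TCR2 RNA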
# Conditions: MEX-5/FITC-TCR2 RNA binding, at 10 µM, hits give low values
row,SMILES,activity score (negative = inhibition of binding)
1,CCCOc1ccc(C(=O)NCC2(N(C)C)CCCCC2)cc1OC,inactive: 0.0546%
2,CN1CCC(Nc2cccc(F)c2)CC1,inactive: 2.2%
3,COc1cc(OC)c(C(=O)NCC2(N(C)C)CCCCC2)cc1OC,inactive: -1.08%
4,CC(C)c1ccc(NC2CCN(C(=O)OC(C)(C)C)CC2)cc1,inactive: -2.81%
5,CN(C)c1cccc(C(=O)NCC2(N3CCCCC3)CCCCC2)c1,inactive: 3.36%
6,COc1ccc(CN(CCCl)CCCl)cc1Cl,inactive: 1.39%
7,O=C(NCC1(N2CCOCC2)CCCCC1)c1cc(=O)[nH]c2ccccc12,inactive: -3.38%
8,COc1cc(C(=O)NCC2(N3CCCCC3)CCCCC2)ccc1OC(F)F,inactive: 1.29%
9,COc1ccc(NC2CCN(C(=O)OC(C)(C)C)CC2)cc1,inactive: -0.633%
10,CN1CCN(CCOC(=O)C(O)(c2ccccc2)c2ccccc2)CC1,inactive: 1.33%
11,O=C(NCC1(N2CCCCC2)CCCCC1)c1cccc(C(F)(F)F)c1,inactive: 2.01%
12,N#CC1(Nc2ccccc2)CCN(CCc2ccccc2)CC1,inactive: 1.39%
13,CCN1CCC(Nc2ccc(Cl)cc2)CC1,inactive: 2.49%
14,O=C(NCC1(N2CCCCC2)CCCCC1)c1cccc([N+](=O)[O-])c1,inactive: 1.57%
15,O=C(NCC1(N2CCCCC2)CCCCC1)c1ccc(OC(F)F)cc1,inactive: 1.43%
16,Cc1ccc(OCC(C)C)c(CN(CCCl)CCCl)c1,inactive: 1.22%
17,CCOC(=O)N1CCC(Nc2cccc(C)c2)CC1,inactive: 1.91%
18,COc1cc(C(=O)NCC2(N(C)C)CCCCC2)ccc1OC(F)F,inactive: 2.53%
19,CCOC(=O)N1CCC(Nc2ccc(F)cc2)CC1,inactive: 1.32%
20,COc1ccc(NC2CCN(CCc3ccccc3)CC2)c(OC)c1,inactive: -1.55%

row,SMILES,activity score (negative = inhibition of binding)
1,O=C(NCC1(N2CCCCC2)CCCCC1)c1ccc(F)cc1,inactive: -2.3%
2,CCOc1ccc(C)cc1CN(CCCl)CCCl,inactive: -1.28%
3,N#CC1(Nc2ccccc2)CCN(Cc2ccccc2)CC1,inactive: 4.42%
4,O=C(OC1CN2CCC1CC2)C1c2ccccc2Oc2ccccc21 (centres undefined),inactive: 0.117%
5,CCOC(=O)N1CCC(Nc2ccc(OC)cc2)CC1,inactive: -0.314%
6,Cc1cc(C)cc(N(C(=O)c2ccccc2)C2CCN(C(=O)OC(C)(C)C)CC2)c1,inactive: 0.0547%
7,O=C(NCC1(N2CCCCC2)CCCCC1)c1ccc(Cl)nc1,inactive: -2.09%
8,O=C(NCC1(N2CCOCC2)CCCCC1)c1cc2ccccc2o1,inactive: -0.133%
9,CSc1ccccc1C(=O)NCC1(N2CCCCC2)CCCCC1,inactive: 4.09%
10,CC(C)(C)OC(=O)N1CCC(N(C(=O)c2ccccc2)c2ccc(F)cc2)CC1,inactive: 1.34%
11,COc1ccc(C(=O)NCC2(N3CCCCC3)CCCCC2)c(OC)c1OC,inactive: -3.53%
12,COc1ccc(C(=O)NCC2(N3CCCCC3)CCCCC2)cc1,inactive: -0.14%
13,O=C(NCC1(N2CCCCC2)CCCCC1)c1cccs1,inactive: 1.04%
14,O=C(NCC1(N2CCCCC2)CCCCC1)c1ccc(=O)[nH]c1,inactive: 2.08%
15,CN1CCC(Nc2ccc(Cl)cc2)CC1,inactive: -2.74%
16,CCCOc1ccc(C)cc1CN(CCCl)CCCl,inactive: 3.94%
17,COc1cccc(C(=O)N(c2cc(C)cc(C)c2)C2CCN(C(=O)OC(C)(C)C)CC2)c1,inactive: -0.196%
18,COc1cc(OC)cc(C(=O)NCC2(N3CCOCC3)CCCCC2)c1,inactive: 0.757%
19,CCC(CO)(C(=O)OC1CN2CCC1CC2)c1ccccc1 (centres undefined),inactive: -0.334%
20,O=C(O)C1(Nc2ccccc2)CCN(Cc2ccccc2)CC1,inactive: -1.72%

row,SMILES,activity score (negative = inhibition of binding)
1,CC(C)(C)OC(=O)N1CCC(Nc2ccccc2)CC1,inactive: -0.922%
2,CCCOc1ccc(C(=O)NCC2(N(C)C)CCCCC2)cc1,inactive: 0.368%
3,CN1CCC(Nc2ccc(F)c(Cl)c2)CC1,inactive: -0.19%
4,CCOc1ncccc1C(=O)NCC1(N2CCOCC2)CCCCC1,inactive: 3.22%
5,CN(C)c1ccc(C(=O)NCC2(N3CCCCC3)CCCCC2)cc1,inactive: 2.42%
6,CCN1CCC(Nc2cccc(F)c2)CC1,inactive: -0.58%
7,Fc1ccccc1NC1CCN(Cc2ccccc2)CC1,inactive: -1.04%
8,Cc1ccc(C(=O)NCC2(N3CCCCC3)CCCCC2)o1,inactive: -0.0534%
9,COc1cc(OC)cc(C(=O)NCC2(N3CCCCC3)CCCCC2)c1,inactive: 0.935%
10,CN(C)C1(CNC(=O)c2cccc(C#N)c2)CCCCC1,inactive: -0.026%
11,CCCN1CCC(Nc2cc(OC)cc(OC)c2)CC1,inactive: 8.22%
12,c1ccc(CN2CCC(Nc3ccccc3)CC2)cc1,inactive: -0.458%
13,N#Cc1ccc(C(=O)NCC2(N3CCCCC3)CCCCC2)cc1,inactive: 1.13%
14,CC(C)(C)OC(=O)N1CCC(N(C(=O)c2ccccc2)c2ccc(Cl)cc2)CC1,inactive: -3.73%
15,CCc1cc(C(=O)NCC2(N3CCCCC3)CCCCC2)sc1C,inactive: 2.3%
16,O=C(OC1CN2CCC1CC2)C1c2ccccc2C=Cc2ccccc21 (centres undefined),inactive: 3.93%
17,CCOC(=O)N1CCC(Nc2ccc(C)cc2)CC1,inactive: 0.438%
18,N/C(=N\O)c1c(N)no[n+]1[O-],inactive: 0.443%
19,COc1ccc(C(=O)NCC2(N3CCOCC3)CCCCC2)cc1OC,inactive: -0.398%
